Results taken from ChEMBL document CHEMBL4342520, “Discovery, Structure-Activity Relationship, and Biological Activity of Histone-Competitive Inhibitors of Histone Acetyltransferases P300/CBP” (J Med Chem, 2020).

Chains of the proteins cited; added tags and fusions are not shown.
UniProt Q09472, whole entry: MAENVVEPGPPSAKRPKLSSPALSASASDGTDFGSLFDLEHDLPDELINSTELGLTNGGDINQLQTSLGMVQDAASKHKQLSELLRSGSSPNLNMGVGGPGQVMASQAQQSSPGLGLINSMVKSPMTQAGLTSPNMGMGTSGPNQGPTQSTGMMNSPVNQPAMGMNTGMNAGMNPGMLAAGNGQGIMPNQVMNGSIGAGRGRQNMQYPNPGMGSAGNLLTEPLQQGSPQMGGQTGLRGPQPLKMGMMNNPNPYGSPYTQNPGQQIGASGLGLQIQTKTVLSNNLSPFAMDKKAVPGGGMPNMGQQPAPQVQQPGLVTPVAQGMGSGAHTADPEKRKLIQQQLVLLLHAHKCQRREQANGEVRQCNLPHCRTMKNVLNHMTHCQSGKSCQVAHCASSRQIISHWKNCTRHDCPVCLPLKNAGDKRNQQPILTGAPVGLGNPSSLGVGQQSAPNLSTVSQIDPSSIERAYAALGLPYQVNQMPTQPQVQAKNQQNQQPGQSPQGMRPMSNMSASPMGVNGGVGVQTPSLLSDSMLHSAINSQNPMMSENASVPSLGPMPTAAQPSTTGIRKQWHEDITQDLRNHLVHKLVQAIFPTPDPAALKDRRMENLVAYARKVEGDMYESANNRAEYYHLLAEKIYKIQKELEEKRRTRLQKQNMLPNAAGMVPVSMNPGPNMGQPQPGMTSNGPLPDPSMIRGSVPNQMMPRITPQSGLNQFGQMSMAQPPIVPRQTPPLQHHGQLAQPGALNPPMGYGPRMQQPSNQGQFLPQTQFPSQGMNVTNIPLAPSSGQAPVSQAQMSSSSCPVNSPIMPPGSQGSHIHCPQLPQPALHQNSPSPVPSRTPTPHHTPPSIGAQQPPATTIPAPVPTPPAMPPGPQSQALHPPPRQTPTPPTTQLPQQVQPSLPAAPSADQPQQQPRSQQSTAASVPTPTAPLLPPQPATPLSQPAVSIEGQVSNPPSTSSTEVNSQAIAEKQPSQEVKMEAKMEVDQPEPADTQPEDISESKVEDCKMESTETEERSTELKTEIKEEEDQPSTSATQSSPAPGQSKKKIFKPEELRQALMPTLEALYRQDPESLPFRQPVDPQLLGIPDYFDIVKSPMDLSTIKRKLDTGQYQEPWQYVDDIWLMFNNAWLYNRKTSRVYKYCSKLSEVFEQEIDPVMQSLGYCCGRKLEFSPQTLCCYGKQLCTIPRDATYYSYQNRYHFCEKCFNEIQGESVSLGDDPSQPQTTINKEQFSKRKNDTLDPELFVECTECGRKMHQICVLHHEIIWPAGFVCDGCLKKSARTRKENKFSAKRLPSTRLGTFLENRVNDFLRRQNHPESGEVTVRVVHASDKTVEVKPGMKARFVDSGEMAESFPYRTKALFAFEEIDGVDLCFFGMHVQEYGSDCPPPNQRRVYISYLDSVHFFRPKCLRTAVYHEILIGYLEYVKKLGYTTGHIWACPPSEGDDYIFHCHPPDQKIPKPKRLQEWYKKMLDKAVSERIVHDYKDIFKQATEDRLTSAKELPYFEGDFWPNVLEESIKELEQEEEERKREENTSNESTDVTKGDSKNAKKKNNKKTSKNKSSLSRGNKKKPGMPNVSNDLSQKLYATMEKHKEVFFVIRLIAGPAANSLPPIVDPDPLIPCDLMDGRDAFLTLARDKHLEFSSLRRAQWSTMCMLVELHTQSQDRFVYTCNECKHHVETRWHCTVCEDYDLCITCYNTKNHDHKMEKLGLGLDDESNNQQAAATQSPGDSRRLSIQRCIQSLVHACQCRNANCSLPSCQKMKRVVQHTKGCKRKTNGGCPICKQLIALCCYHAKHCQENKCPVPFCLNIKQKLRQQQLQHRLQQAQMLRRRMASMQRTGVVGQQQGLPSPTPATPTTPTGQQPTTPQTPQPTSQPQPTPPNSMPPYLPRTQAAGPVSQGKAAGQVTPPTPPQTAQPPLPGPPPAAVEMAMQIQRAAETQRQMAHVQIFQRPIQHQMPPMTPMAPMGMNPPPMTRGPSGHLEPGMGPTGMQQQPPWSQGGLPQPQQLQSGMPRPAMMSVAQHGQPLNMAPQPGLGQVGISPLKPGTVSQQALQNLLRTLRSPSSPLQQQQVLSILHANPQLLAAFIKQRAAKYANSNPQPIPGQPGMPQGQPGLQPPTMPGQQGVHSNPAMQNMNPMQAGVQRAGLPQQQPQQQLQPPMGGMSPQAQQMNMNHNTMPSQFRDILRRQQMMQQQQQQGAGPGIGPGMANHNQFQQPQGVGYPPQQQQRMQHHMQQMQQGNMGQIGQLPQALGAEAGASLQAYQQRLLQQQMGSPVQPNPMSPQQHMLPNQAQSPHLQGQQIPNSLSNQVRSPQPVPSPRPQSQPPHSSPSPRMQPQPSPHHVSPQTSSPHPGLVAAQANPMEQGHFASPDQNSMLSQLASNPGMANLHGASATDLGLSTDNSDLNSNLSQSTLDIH

Molecular target: Histone acetyltransferase p300 (Homo sapiens, UniProt Q09472)
Experiment: Inhibition of His6-tagged p300 HAT domain (unknown origin) assessed as disruption of p300 and Histone H4 (1-21) peptide interaction incubated for 1 hr by Alpha assay
How it was run: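 Varying compound concentrations were added in PBS with 0.5% BSA for 1 h. Signal was read with excitation at 680 nm and emission at 570 nm. A biotinylated His6 peptide served as an interference counter-control. IC50 came from a sigmoidal fit.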

In the case of `CC(C)(C)c1ccc(-c2cc(CNCC3CCNCC3)sc2-c2ccc(C(C)(C)C)cc2)cc1`, the inhibition is reported as “Dose-dependent effect”.
